Where two headings read alike, the source gives them in different places.
Columns and labels:
B-HRP = target: T1, B-HRP (Armoracia rusticana, UniProt P00433); experiment: Dot blot assay with B-HRP, film densitometry; conditions: […] Azine Enhancer, 5 mM Sodium Luminol
T1 sequence (P00433 31-338): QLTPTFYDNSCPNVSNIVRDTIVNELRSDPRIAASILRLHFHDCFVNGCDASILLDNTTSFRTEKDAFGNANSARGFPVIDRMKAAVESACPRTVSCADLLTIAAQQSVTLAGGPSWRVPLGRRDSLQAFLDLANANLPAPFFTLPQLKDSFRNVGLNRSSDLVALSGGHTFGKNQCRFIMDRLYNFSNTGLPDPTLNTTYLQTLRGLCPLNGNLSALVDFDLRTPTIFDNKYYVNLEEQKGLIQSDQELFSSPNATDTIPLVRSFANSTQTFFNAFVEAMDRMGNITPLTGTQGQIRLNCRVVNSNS

[1] = target: T2, Biotinylated horseradish peroxidase (B-HRP) (Armoracia rusticana, UniProt P00433); experiment: Microtiter plate luminometer assay of peroxidase chemiluminescence (RLU)
T2 sequence (P00433 31-338): T1 sequence (P00433 31-338)

[2] = […] Azine Enhancer, 5 mM Sodium Luminol
[3] = 25 pg of the B-HRP, enhancer concentrations as in row ([…] 1c; 52 μM 1c; 52 μM 1b; 13.5 μM 3)

Compound | Net Relative Intensity at 15.6 pg B-HRP (B-HRP) | Net RLU at 0.98 pg B-HRP [1, 2] [RLU] | Net RLU at 3.9 pg B-HRP [1, 2] [RLU] | Net RLU at 15.6 pg B-HRP [1, 2] [RLU] | Net RLU at 62.5 pg B-HRP [1, 2] [RLU] | Net RLU at 250 pg B-HRP [1, 2] [RLU] | other results
2-chloro-10 (3 trimethyl amino propyl)-phenothiazonan bromide [Azine Enhancer 1d] | 0 | – | – | – | – | – | Net RLU at 0.98 pg B-HRP [1]: 0.00 RLU; Net RLU at 3.9 pg B-HRP [1]: 0.00 RLU; Net RLU at 15.6 pg B-HRP [1]: 0.00 RLU; Net RLU at 62.5 pg B-HRP [1]: 0.00 RLU; Net RLU at 250 pg B-HRP [1]: 0.19 RLU
CN1c2ccccc2Sc2ccccc21 [Azine Enhancer 1b, N-Methylphenothiazine] | – | – | – | – | – | – | RLU 1 minute [1]: 0.06 RLU; RLU 5 minutes [1]: 0.13 RLU; RLU 15 minutes [1]: 0.32 RLU; RLU 30 minutes [1]: 0.76 RLU; RLU 1 hour [1]: 0.65 RLU; RLU 2 hours [1]: 0.04 RLU; Relative Intensity 250 pg B-HRP [1]: 16.30
O=S(=O)([O-])CCCCN1c2ccccc2Sc2ccccc21.[Na+] [Azine Enhancer 1f] | 54.12 | 1.30 | 6.50 | 33.80 | 181.00 | 899.10 | –
CC(CN1c2ccccc2Sc2ccccc21)C[N+](C)(C)C.[Cl-] (centres unmarked) [Azine Enhancer 1g] | 0 | 0.00 | 0.00 | 0.00 | 0.00 | 0.35 | –
O=S(=O)([O-])CCCCN1c2ccccc2Sc2ccc(Cl)cc21.[Na+] [Azine Enhancer 1h] | 16.09 | 0.08 | 0.17 | 0.19 | 1.50 | 99.20 | –
O=C1C=CC(=Nc2ccc(O)cc2)C=C1 [Phenolic Enhancer 3, Phenolindophenol/indophenol] | – | – | – | – | – | – | RLU 1 minute [1, 3]: 0.001 RLU; RLU 5 minutes [1, 3]: 0.002 RLU; RLU 15 minutes [1, 3]: 0.001 RLU; RLU 30 minutes [1, 3]: 0.002 RLU; RLU 1 hour [1, 3]: 0.002 RLU; RLU 2 hours [1, 3]: 0.002 RLU; Relative Intensity 250 pg B-HRP ([1]; after 5 minutes, enhancer concentrations as in row ([…] 1c; 52 μM 1c; 52 μM 1b; 13.5 μM 3)): 0.328

— patent publication US20020192736A1, “Assay of peroxidase activity” (Pierce Chemical Company, priority 2001, published 2002)
